Reference: patent US8748491B2, “Dietary and pharmaceutical compositions containing tricyclic diterpenes and their derivatives and their uses” (priority 2006, dated 2014)

Test system: mouse
Experiment: Porsolt's forced swim test (FST)
Assay type: in vivo
Details: 10 mg/kg i.p., −30 min
Procedure: Mice were individually placed in cylinders (24.5 cm height, 19.5 cm internal diameter) containing 13.5 cm depth of water (22±0.5° C.) for a period of 6 minutes, behavioural parameters of interest being analysed during the final 4 minutes of the test, since the first 2 minutes include vigorous activity. Six cylinders were placed in a Perspex box, thus enabling six mice to be tested simultaneously.
Automatic monitoring of swim tests was enabled through the use of VideoMot2 software (TSE Technical and Scientific Equipment GmbH, Bad Homburg, Germany). All to experiments were observed via a black and white CCD camera. The rest:locomotion and stop:start thresholds, as determined by setting parameters in the software programme, determine the number of pixels which must change for a movement to be registered, enabling the software to determine whether a mouse is swimming or resting. The parameters which are automatically recorded include: rest time and locomotion time (ms), % rest and % locomotion, distance travelled (cm), speed of travel (cm/s) and number of stops.
Data were analysed by comparing treated groups with the untreated control group using Fisher's PLSD (StatView, SAS Institute Inc., Cary, N.C., USA)

For `CNCCC(Oc1ccc(C(F)(F)F)cc1)c1ccccc1` (stereo not shown) [Fluoxetine, fluoxetine, reference compound], the “Duration of immobility (% change from control)” value was −41%.
